Screening data as filed in PubChem BioAssay.
HCMV NEC inh – disrupts HCMV UL50-UL53 complex binding | HTRF UL50-UL53 interaction, normalized percent inhibition | inhibition, % (concentration not given with the values) | actives 0.15% (n = 190,000); in the data active = inhibition above about 27%, passing the limit was not always enough
GIV-Gai inh – GIV-Galpha-i interaction inhibition. 210,000 compounds, 0.42% hits. percent of control (FP), % (no concentration beside the values). Galpha-i3/FITC-GIV peptide fluorescence polarization, 90 min; active compounds read low; scaled: aluminum fluoride 0%, vehicle 100%. AID 1224905. P08753;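 active = replicate mean at 85% of control or lower, very high polarization wells dropped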;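 note: wells of about 15 µL received 100 nL stock; the first replicate is given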
GIV Gai FP conf – confirmation of inhibitors of GIV binding to rat Galpha-i3. shares compounds with GIV-Gai inh. fluorescence polarization, mP at 100 µM. FITC-GIV peptide binding to Galphai3, fluorescence polarization; hits give low values. actives 38% (n = 580);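 active = inhibition score of 15 or more, meaning 100 minus mean polarization as percent of control over three replicates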;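 note: lower mP means peptide displaced from Galphai3 so more inhibition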
GIV Gai AS conf – GIV-Galpha-i3 inhibition, AlphaScreen confirmation. shares compounds with GIV-Gai inh. AlphaScreen Galphai3-GIV binding, purified proteins, 90 min; hits give low values. AlphaScreen counts at 100 µM. actives 39% (n = 580). AID 1259351;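 active = inhibition score at or above a set limit, where the score is 100 minus the three-replicate mean percent of control signal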
* hit, by the source's call; . = no result given. A selection: hits, their analogues and other compounds. The true share with any hit is near 0.43%.

SMILES	HCMV NEC inh	GIV-Gai inh	others
Cn1c(CCCC(=O)O)nc2cc(N(CCCl)CCCl)ccc21	67*	97
C=C[C@]12CN(C)[C@@H]3[C@H]4COC(CC41)[C@]1(C(=O)Nc4ccccc41)[C@@H]32	-16	.
CC(N)c1cccnc1 (stereo unspecified)	-31	.
CCN(CC)c1ccc(C=C(C#N)C#N)cc1	-56	51*
N#CC(C#N)=Cc1ccc(O)cc1	-13	.
O=C(Oc1cccc2cccnc12)c1cc(S(=O)(=O)N2CCCCC2)c(Cl)cc1Cl	.	112
CC1CCCC(C)N1CC#CCO (stereo unspecified)	0	105
Cc1nc2nc(-c3ccc(C(C)(C)C)cc3)nn2c(C)c1CC(=O)N1CCN(C)CC1	-11	101
C1=C(c2cccnc2)Nc2ncnn2C1c1cccs1 (stereo unspecified)	-73	-74*
CCOC(=O)C1C2NC(=S)NC1(C)Oc1ccccc12 (stereo unspecified)	-33	100
CCOC(=O)c1cc(CC)sc1/N=C/C1C(=O)NC(=S)NC1=O	.	-36*
COc1ccc(OC)c(NC(=O)c2cccn(Cc3cccc(F)c3)c2=O)c1	.	109
CC(C)(C)c1ccc(OCCOc2ccccc2C=C2C(=O)NC(=O)NC2=O)cc1	65*	91
O=C1NC(=O)C(=Cc2ccccc2OCCOc2ccc([N+](=O)[O-])cc2)C(=O)N1	-2	104
CCCCCCCC/C=C\CCCCCCCC(=O)N[C@H](C)CO	-8	.
N#Cc1c(N)[n+]([O-])c2ccccc2[n+]1[O-]	-132	-31*
CC(C)CC(NP(=O)(O)OC1OC(C)C(O)C(O)C1O)C(=O)NC(Cc1c[nH]c2ccccc12)C(=O)O (stereo unspecified)	-3	.
O=Cc1cn(Cc2ccc(Cl)cc2)c2ccccc12	-8	.
O=C1NC(=O)C(=Cc2cn(Cc3ccccc3)c3ccccc23)C(=O)N1	.	-5.9*
COc1ccc2c(c1)c(C(=O)n1ccnc1)c(C)n2C1CCCCC1	-8	.
O=c1c2ccccc2nc(N2CCCCC2)n1-c1ccccc1	0	96
CC1CC[C@H]2C(C)C(=O)O[C@@H]3O[C@@]4(C)CC[C@@H]1[C@]32OO4 (stereo partly specified)	-18	.
Cc1ccc2c(c1)C1CN(C)CCC1N2 (stereo unspecified)	13	84*
CC(=O)N1c2ccc(C)cc2C2CN(C)CCC21 (stereo unspecified)	.	107
CN(C)C(=O)Oc1cccc(NC(=O)c2cc(Cl)cc(Cl)c2)c1	-2	97

Retrieved one by one from above (5):
SMILES	HCMV NEC inh	GIV-Gai inh	others
CN(C)C(=O)Oc1cccc(NC(=O)c2cc(Cl)cc(Cl)c2)c1	-2	97
N#Cc1c(N)[n+]([O-])c2ccccc2[n+]1[O-]	-132	-31*
CC(=O)N1c2ccc(C)cc2C2CN(C)CCC21 (stereo unspecified)	.	107
CCN(CC)c1ccc(C=C(C#N)C#N)cc1	-56	51*
C=C[C@]12CN(C)[C@@H]3[C@H]4COC(CC41)[C@]1(C(=O)Nc4ccccc41)[C@@H]32	-16	.

Additional compounds.
SMILES	HCMV NEC inh	GIV-Gai inh	others
Cn1c(=O)[nH]c2nncnc2c1=O	78*	107
CSc1ccc(CN2CCN(Cc3cccc(C)c3)CC2)cc1	-4	.
CN1C(=O)C(=Cc2ccccc2OS(=O)(=O)c2ccccc2)C(=O)N(C)C1=O	-6	106
COc1cc(C=C2C(=O)N(C)C(=O)N(C)C2=O)ccc1OS(=O)(=O)c1ccccc1	62*	104
Cc1cc(C)nc(SCc2nc3ccccc3c(=O)n2-c2ccccc2)n1	-5	100
NC(Cc1cc(O)c(O)cc1O)C(=O)O (stereo unspecified)	76*	71*	GIV Gai FP conf=34*;GIV Gai AS conf=2389*
NCCc1cc(O)c(O)cc1O	-22	.
CC[C@@]1(O)C(=O)OCc2c1cc1n(c2=O)Cc2cc3c(O)cccc3nc2-1	-78	77*	GIV Gai FP conf=61*;GIV Gai AS conf=15350
CC[C@@]1(O)C(=O)OCc2c1cc1n(c2=O)Cc2cc3ccccc3nc2-1	-83	98
COC(=O)CCCC(=O)N1CC2CC(C1)c1cccc(=O)n1C2 (stereo unspecified)	.	103
O=C1NC(=O)C(=Cc2ccc(-c3cc(C(=O)O)ccc3Cl)o2)C(=O)N1	-19	59*	GIV Gai FP conf=60*;GIV Gai AS conf=4991*
COc1ccc(N2C(=O)/C(=C/c3ccc(-c4cc(C(=O)O)ccc4Cl)o3)C(=O)NC2=S)cc1	-1	108
Oc1ccc(CC2CC3CCN2CC3)cc1 (stereo unspecified)	.	98
COc1cc(C(c2c(C)[nH]n(-c3ccccc3)c2=O)c2c(C)[nH]n(-c3ccccc3)c2=O)cc(OC)c1OC	.	79*	GIV Gai FP conf=53*;GIV Gai AS conf=19198*
COc1cc(CN2CCN(C(=O)Cc3ccccc3)CC2)cc(OC)c1OC	-8	98
O=C(O)C(c1c(O)c2ccccc2oc1=O)c1c(O)c2ccccc2oc1=O	.	93
FC(F)(F)c1cccc(C2NCCc3[nH]cnc32)c1 (stereo unspecified)	-19	98
